## Yeast mating assay B: variants of the scFv Ab-14

Data: MIT Lincoln Laboratory AlphaSeq set, Li et al. 2023, doi:10.1038/s41467-023-39022-2, as distributed in FLAb.

Target: peptide PDVDLGDISGINAS, taken from heptad repeat 2 (HR2) of SARS-CoV-2 spike.

Parent: Ab-14, a human scFv built as VH, a 15-residue (Gly4Ser)3 linker, VL. Only the CDRs of the heavy chain vary.
VH: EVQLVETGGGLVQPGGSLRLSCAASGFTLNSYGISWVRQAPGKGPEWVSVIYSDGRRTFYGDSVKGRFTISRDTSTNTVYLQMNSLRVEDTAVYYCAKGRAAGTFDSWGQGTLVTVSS
VL: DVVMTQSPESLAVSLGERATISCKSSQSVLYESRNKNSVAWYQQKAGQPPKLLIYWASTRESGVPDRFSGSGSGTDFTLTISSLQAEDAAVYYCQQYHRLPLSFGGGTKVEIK

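The parent was found by panning a naive human phage display library on the peptide. These sequences belong to a second round, designed from the earlier measurements on random variants of the parent. Their group label is 14H_GP_Gibbs (GP: Gaussian process model; Gibbs: Gibbs sampling; a sequence that several methods proposed may carry one label only). In AlphaSeq, yeast of one mating type display the scFv and yeast of the other type display the target. The frequency of each diploid, read from paired DNA barcodes, reflects how well the two displayed proteins bind. The ratio of observed to expected reads was calibrated, replicate by replicate, on BCL2-family standards whose Kd was known from biolayer interferometry. Mating was done six times.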

Positions count from residue 1 of the parent VH; T28D puts D in place of T.
Numbers give log10(Kd / nM), so 0 is 1 nM and 3 is 1 µM. Smaller is tighter.
Where no diploid with the target was found in that replicate, the entry reads "ND": below detection, most likely a poor binder, though not proof of it.

changes,"replicates, log10 nM",control signals
T28D+T58S+R100E,0.53 / 0.71 / 0.47 / 0.16 / 0.17 / 0.82,0/18
T28D+G61A+S63A+A101M,1.18 / 0.10 / 0.15 / 0.66 / 0.39 / 0.37,0/18
F27K+T28S+F59A+G61A,ND / ND / ND / ND / ND / ND,0/18
T28S+G61A+S63N+R100N+S107T,0.75 / 0.48 / -0.47 / 0.55 / -0.40 / 0.14,0/18
T28S+S31E+R100L+A101T+S107A,-0.47 / -0.29 / -0.42 / -0.42 / -0.73 / -0.33,0/18
F27K+S53A+A101V,0.53 / 0.13 / 0.83 / 0.20 / 0.81 / 1.04,0/18
T28S+R56K+S63N+A101E,0.02 / -0.15 / -0.19 / -0.43 / 0.05 / -0.17,0/18
T28N+S63R+R100Q+A101I,ND / 2.19 / ND / 2.27 / 1.72 / ND,0/18
T28N+G61A+A101T+S107N,0.59 / 0.38 / 0.37 / 0.15 / 0.27 / 0.51,0/18
G61I+R100T+A101V,ND / 0.39 / ND / ND / 0.12 / ND,0/18
G61A+S63Q+R100K,2.14 / 1.89 / 1.93 / 1.75 / 1.79 / 2.71,1/18 (2.07)
T28Q+G61H+A101T+S107T,ND / ND / 1.60 / 2.39 / 1.36 / ND,0/18
T28E+R56Q+A101T+S107E,1.19 / 0.80 / 0.67 / 1.29 / 1.74 / 0.71,0/18
R56L+G61T+R100K+A101V,0.93 / 0.65 / 1.38 / ND / 0.95 / 0.88,1/18 (1.13)
T28E+S31M+G61T+A101T,ND / ND / ND / ND / 1.80 / 0.40,0/18
T28V+S31E+R100K+S107K,1.80 / ND / ND / ND / ND / ND,1/18 (2.16)
T28N+G61H+R100W+A101M,ND / 2.13 / 1.29 / ND / 2.55 / 2.20,0/18
T28H+G61Q+A101E+S107D,ND / ND / ND / ND / 1.14 / 1.41,0/18
T28S+R100N+A101T+S107R,0.17 / -0.23 / -0.03 / -0.22 / -0.21 / 0.31,0/18
T28S+S31T+G61K+R100K,0.10 / 0.48 / 0.48 / 0.15 / 0.10 / 0.89,0/18
S63D+R100Q+S107V,1.15 / 0.91 / 1.68 / 1.58 / 1.17 / 2.00,0/18
T28E+G61A+A101L+S107K,0.98 / 0.62 / 1.57 / 0.69 / 1.15 / 0.99,0/18
T28E+G61A+S63A+A101N,1.00 / 0.71 / 0.56 / 0.84 / 0.21 / 0.85,1/18 (1.18)
T28N+G61A+S63P+R100N,1.04 / 0.51 / 0.53 / 0.55 / 0.30 / 0.75,0/18
T28D+R56K+R100H+S107L,1.25 / -0.32 / 0.29 / 0.68 / -0.73 / 0.61,0/18
R100K+A101I+S107K,1.43 / 0.93 / ND / 0.33 / ND / 1.20,0/18
T28H+R100Q+A101E+S107D,ND / 0.58 / 1.07 / 1.00 / 2.09 / 1.29,1/18 (1.77)
T28A+S31E+F59M+A101T,-0.58 / -0.41 / -0.76 / 0.18 / -0.25 / -0.59,0/18
T28D+T58S+G61A+A101E,-0.07 / -0.17 / -0.67 / 0.15 / -0.33 / 0.07,0/18
T28D+S31C+R100Q+A101T,0.82 / ND / ND / ND / ND / ND,0/18
T28D+G61L+A101E+S107T,-0.07 / 0.22 / 0.03 / -0.40 / -0.40 / -0.14,0/18
G61A+R100N+A101E+S107T,0.01 / -0.17 / -0.50 / 0.34 / -0.06 / -0.30,1/18 (1.80)
R56K+G61S+R100K+S107V,1.19 / 0.82 / 0.49 / 0.25 / 0.56 / 1.45,0/18
T28G+S31E+G61I+R100H,0.33 / 0.05 / -0.28 / -0.12 / 0.12 / 0.24,0/18
T28E+G61V+R100Q+A101T+S107A,0.07 / 0.55 / 0.24 / 0.36 / 0.15 / -0.11,0/18

The last 4 entries again:

changes,"replicates, log10 nM",control signals
G61A+R100N+A101E+S107T,0.01 / -0.17 / -0.50 / 0.34 / -0.06 / -0.30,1/18 (1.80)
R56K+G61S+R100K+S107V,1.19 / 0.82 / 0.49 / 0.25 / 0.56 / 1.45,0/18
T28G+S31E+G61I+R100H,0.33 / 0.05 / -0.28 / -0.12 / 0.12 / 0.24,0/18
T28E+G61V+R100Q+A101T+S107A,0.07 / 0.55 / 0.24 / 0.36 / 0.15 / -0.11,0/18

Of ten entries with the parent sequence, four were seen in most replicates (averages 0.34 to 2.37), three in one and three in none, so single entries are noisy.
Three control strains display no target. For all heavy chain designs, 1% of the pairings with them gave a signal, with a median of 2.08 and one signal in twenty below 0.84, so weak values seen in few replicates may be background. The control count says in how many pairings with the empty strains this scFv gave a signal, with their mean in brackets.
The authors' rule: three or more of the six replicates give a measured affinity, fewer mean a poor binder.
The range of this assay differs from that of the first round, and the authors advise against merging the two.